The record followed here is ChEMBL document CHEMBL5344469, “Pioneering Methods in Brain Optimization and Mental Health Treatment” (ACS Med Chem Lett, 2024).

Sequences of proteins named here, by UniProt entry; tags and fusion partners are left off.
UniProt P28223, whole entry: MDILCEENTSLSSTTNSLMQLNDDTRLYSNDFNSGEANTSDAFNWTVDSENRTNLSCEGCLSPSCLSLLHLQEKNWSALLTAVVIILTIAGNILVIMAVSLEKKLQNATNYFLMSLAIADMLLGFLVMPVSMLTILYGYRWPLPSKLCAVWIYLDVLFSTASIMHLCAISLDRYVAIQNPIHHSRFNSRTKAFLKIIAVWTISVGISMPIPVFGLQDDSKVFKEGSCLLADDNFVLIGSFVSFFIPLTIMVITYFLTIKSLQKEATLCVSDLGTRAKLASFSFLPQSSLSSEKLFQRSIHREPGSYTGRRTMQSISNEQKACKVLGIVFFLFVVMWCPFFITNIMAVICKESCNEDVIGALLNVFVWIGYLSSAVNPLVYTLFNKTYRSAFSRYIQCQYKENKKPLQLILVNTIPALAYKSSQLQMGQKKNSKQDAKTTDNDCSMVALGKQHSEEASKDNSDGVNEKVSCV

pEC50: −log10 of the molar value.

This experiment has as its target 5-hydroxytryptamine receptor 2A (Homo sapiens, UniProt P28223). The experiment is classed as functional, cell-based, CHO-K1.

A word on the pEC50: it is −log10 of the EC50, conventionally taken in molar units. A lower pEC50 goes with a high EC50.

`CNCCc1c[nH]c2cccc(O)c12` gave a pEC50 of 8.62.
